We go through one molecule from ChEMBL document CHEMBL3525922, “Significance of reductive metabolism in human intestine and quantitative prediction of intestinal first-pass metabolism by cytosolic reductive enzymes” (Drug Metab Dispos, 2013).

Data set [1] can be described thus: Unbound intrinsic clearance in human intestinal cytosol at 50 to 1000 nM after 30 to 60 mins by HPLC-MS/MS analysis. The format is ADME, Intestine. Particulars: 1 µM.
The nature of data set [2]: Unbound intrinsic clearance in human intestinal S9 fraction at 50 to 1000 nM after 30 to 60 mins by HPLC-MS/MS analysis. The format is ADME, Intestine. Particulars: s9, 1 µM.
A short description of data set [3]: Unbound intrinsic clearance in human intestinal S9 fraction at 50 to 1000 nM after 30 to 60 mins by HPLC-MS/MS analysis in presence of NADPH. The format is ADME, Intestine. Particulars: s9, 1 µM.
Data set [4] relates to Liver cytosol. As to the kind of experiment: Unbound intrinsic clearance in human liver cytosol at 50 to 1000 nM after 30 to 60 mins by HPLC-MS/MS analysis. The format is ADME, tissue-based. Particulars: 1 µM.
Data set [5] relates to Liver. Briefly: Unbound intrinsic clearance in human liver S9 fraction at 50 to 1000 nM after 30 to 60 mins by HPLC-MS/MS analysis. The format is ADME, subcellular. Particulars: s9, 1 µM.

`COC(=O)Nc1nc2ccc(C(=O)c3ccccc3)cc2[nH]1` [MEBENDAZOLE]: the CL free in data set [1] is 45 µL/min/mg; in data set [2], 61 µL/min/mg; in data set [3] it was 61 µL/min/mg; in data set [4], 11 µL/min/mg; in data set [5], 16 µL/min/mg.
